The record followed here is ChEMBL document CHEMBL1137980, “Rationale, design, and synthesis of novel phenyl imidazoles as opioid receptor agonists for gastrointestinal disorders” (J Med Chem, 2004).

Sequences of proteins named here, by UniProt entry; tags and fusion partners are left off.
UniProt P33535, whole entry: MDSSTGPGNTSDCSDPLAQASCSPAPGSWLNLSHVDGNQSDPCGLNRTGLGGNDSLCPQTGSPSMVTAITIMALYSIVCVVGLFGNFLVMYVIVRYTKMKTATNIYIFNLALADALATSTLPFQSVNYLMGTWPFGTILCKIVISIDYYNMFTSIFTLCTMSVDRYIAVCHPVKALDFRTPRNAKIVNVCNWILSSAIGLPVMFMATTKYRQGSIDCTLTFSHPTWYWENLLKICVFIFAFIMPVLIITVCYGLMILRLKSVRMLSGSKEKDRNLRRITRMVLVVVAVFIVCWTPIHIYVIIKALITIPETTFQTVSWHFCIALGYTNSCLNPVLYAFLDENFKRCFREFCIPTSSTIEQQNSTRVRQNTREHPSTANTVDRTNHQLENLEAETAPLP

In this test the target is Mu-type opioid receptor (Rattus norvegicus, UniProt P33535). Nature of the test: Binding affinity for Mu opioid receptor of rat brain. Summed up: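 Male Wistar rat forebrain membranes in 50 mM Tris HCl pH 7.4 with 5 mM MgCl2. Incubated 2.5 h at 25 °C with ~4 nM [3H]DPDPE (δ) or ~0.8 nM [3H]DAMGO (μ). Filtered, rinsed with 10 mM HEPES pH 7.4 and counted by liquid scintillation. Ki derived from a range of test concentrations; single-concentration data expressed as % inhibition of specific binding.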

A word on the Ki: it is the dissociation constant of the complex between target and ligand, obtained from inhibition or displacement. A high value points to lower affinity. For the compound `CN(C)C(=O)C(CCN1CCC(O)(c2ccc(Cl)cc2)CC1)(c1ccccc1)c1ccccc1` [LOPERAMIDE], the Ki was 0.16 nM.
